# Reference: patent US4677129A, “Substituted-3-azabicyclo[3.1.1]heptane-2,4-diones useful for treating hormone-dependent diseases” (Ciba-Geigy Corporation, priority 1984, dated 1987)
# Tested on: aromatase
# Details: human placental microsomes
compound,measurement,setting,value
"CCCN1C(=O)C2CC(c3ccc(N)cc3)(C2)C1=O [Example 1, 1-(4-aminophenyl)-3-n-propyl-3-azabicyclo[3.1.1]heptane-2,4-dione]","enzyme activity (NADPH content), read as content of water having radioactive tritium isotopes","[1β,2β-3H]-testosterone substrate, compared with measurements made without addition of compound",substantially reduces the enzyme activity
same,"reduction in enzyme activity compared with other known aromatase inhibitors, for example aminoglutethimide","comparison measurements at the same concentrations, comparator aminoglutethimide",substantially greater
